Data: patent US20240279232A1, “USE OF SUBSTITUTED 5-(4-METHYL-6-PHENYL-4H-BENZO[F]IMIDAZO[1,5-A][1,4] DIAZEPIN-3-YL)-1,2,4-OXADIAZOLES IN THE TREATMENT OF INFLAMMATORY CONDITIONS” (priority 2021, published 2024)

Sequences of proteins named here, by UniProt entry; tags and fusion partners are left off.
UniProt P35372, whole entry: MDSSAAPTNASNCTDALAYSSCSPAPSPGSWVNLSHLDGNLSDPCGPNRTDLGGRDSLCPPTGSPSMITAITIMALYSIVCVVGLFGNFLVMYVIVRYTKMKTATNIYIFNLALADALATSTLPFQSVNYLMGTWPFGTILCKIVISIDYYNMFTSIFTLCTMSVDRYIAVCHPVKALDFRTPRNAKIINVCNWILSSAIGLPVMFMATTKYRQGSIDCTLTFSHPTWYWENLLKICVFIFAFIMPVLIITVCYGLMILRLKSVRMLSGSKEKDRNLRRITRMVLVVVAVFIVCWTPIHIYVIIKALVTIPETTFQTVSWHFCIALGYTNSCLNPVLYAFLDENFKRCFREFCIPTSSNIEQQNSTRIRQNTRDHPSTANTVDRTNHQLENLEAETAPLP
UniProt P41145, whole entry: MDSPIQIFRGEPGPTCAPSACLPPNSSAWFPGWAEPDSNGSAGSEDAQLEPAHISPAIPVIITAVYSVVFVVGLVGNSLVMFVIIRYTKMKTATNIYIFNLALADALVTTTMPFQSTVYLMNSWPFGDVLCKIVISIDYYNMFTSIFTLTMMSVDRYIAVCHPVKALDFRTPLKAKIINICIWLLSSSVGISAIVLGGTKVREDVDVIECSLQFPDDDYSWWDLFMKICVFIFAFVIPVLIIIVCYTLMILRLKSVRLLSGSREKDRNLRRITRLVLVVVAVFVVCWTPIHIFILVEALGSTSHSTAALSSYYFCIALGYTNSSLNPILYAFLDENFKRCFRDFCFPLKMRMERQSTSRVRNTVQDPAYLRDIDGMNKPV

Key:
MOR (μ opioid receptor) = MOR (μ opioid receptor) (Homo sapiens, UniProt P35372); experiment: MOR radioligand binding ([3H]-DAMGO, HEK293 cell homogenates); conditions: Percent inhibition at 10,000 nM
Description: (§1) Radioligand binding assays. Detailed protocols for the primary and secondary radioligand binding assays can be found in the National Institute of Mental Health's Psychoactive Drug Screening Program (NIMH PDSP) Assay Protocol Book (Roth, 2018). Briefly, primary and secondary radioligand binding assays are carried out in a final of volume of 125 μL per well in appropriate binding buffer. The radioactive ligand concentration is close to the Kd ([^3H]-U69593 0.83 nM, [^3H]-DAMGO 1.20 nM, and [^3H]-DADLE 2.69 nM). Total binding and nonspecific binding are determined in the absence and presence of 10 μM of appropriate reference compound (Naltrindole DOR, Salvinorin A KOR and DAMGO MOR). […] Scintillation cocktail is then melted onto the microwave-dried filters on a hot plate and radioactivity counted in a Microbeta counter. The data (n=6) were analyzed by nonlinear regression.
(§2) Ligand affinities were determined for KOR (κ opioid receptor), DOR (δ opioid receptor), and MOR (μ opioid receptor) using radioligand binding assays at a screening concentration of 10,000 nM. […] Gamma aminobutyric acid type A receptor (GABAAR) binding was determined with rat brain homogenate and ^3H-flunitrazepam. […]
(§3) Psychoactive Drug Screening Program. […] Total binding and nonspecific binding are determined in the absence and presence of 10 μM of appropriate reference compound, respectively. […]

DOR (δ opioid receptor) = DOR (δ opioid receptor) (Homo sapiens, UniProt P41143); experiment: DOR radioligand binding ([3H]-DADLE, HEK293 cell homogenates); conditions: Percent inhibition at 10,000 nM
Description: as §1, §2, §3

[1] = tested on: BZR (benzodiazepine site of GABAAR); experiment: GABAAR/BZR binding, rat brain homogenate with 3H-flunitrazepam
Description: Ligand affinities were determined for KOR (κ opioid receptor), DOR (δ opioid receptor), and MOR (μ opioid receptor) using radioligand binding assays at a screening concentration of 10,000 nM. For these assays, cell homogenates from HEK293 cells that overexpressed KOR, MOR, and DOR were used in combination with [^3H]-U69593, [^3H]-DAMGO, and [^3H]-DADLE, respectively Compounds that exceeded more than 50% radioligand displacement were investigated further in concentration-dependent experiments to determine Ki values. Gamma aminobutyric acid type A receptor (GABAAR) binding was determined with rat brain homogenate and ^3H-flunitrazepam. Flunitrazepam binds GABAAR subtypes that consists of two α and two β subunits and one γ or δ subunit. Strong affinities to α1-3,5,6β1-3γ1-y/δ GABAARS have been reported for flunitrazepam. The […] GABAAR subtype expression in the brain includes 43% α1β2γ2, 15% α2β3γ2+8% α2βγ1, 10% α3β3γ2, 6% α4βγ/δ, 4% α5β3γ2, and 4% α6β2γ2/δ. […]
Psychoactive Drug Screening Program. […] Total binding and nonspecific binding are determined in the absence and presence of 10 μM of appropriate reference compound, respectively. […] Scintillation cocktail is then melted onto the microwave-dried filters on a hot plate and radioactivity counted in a Microbeta counter. The data (n=6) were analyzed by nonlinear regression.

KOR (κ opioid receptor) = KOR (κ opioid receptor) (Homo sapiens, UniProt P41145); experiment: KOR radioligand binding ([3H]-U69593, HEK293 cell homogenates); conditions: Percent inhibition at 10,000 nM
Description: as §1, §2, §3

C#Cc1ccc2c(c1)C(c1ccccc1F)=NCc1c(C(=O)OCc3ccccc3)ncn1-2
MOR % (MOR (μ opioid receptor)): 0% | DOR % (DOR (δ opioid receptor)): 16% | BZR % ([1]; Percent inhibition at 10,000 nM): 98% | Ki ([1]; read-out: BZR (Ki)): 21 nM | KOR % (KOR (κ opioid receptor)): 84%
